These results are taken from US20220088204A1, “ANTICANCER DRUGS AND METHODS OF MAKING AND USING SAME” (YALE UNIVERSITY, priority 2019, published 2022).

Each structure is given as a SMILES string.

The test system of data set [1] is MDA-MB-231 breast cancer cells. The data set can be described thus: pH-dependent cell growth inhibition, CellTiter-Glo. The format is cell-based, Human. The settings on record: 6 hours treatment, 72 hours growth. How it is done: FIG. 6 depicts pH-dependent cell growth inhibition of MDA-MB-231 breast cancer cells in culture, treated transiently with Drug (in this case doxorubicin HCl) or various prodrugs of the invention. Cells treated for 6 hours at pH 7.4 (normal physiological pH, X traces) or pH 6.2 (acidic solid tumor pH, Y traces) were subsequently allowed to grow in normal growth medium for 72 hours, then cell viability was evaluated using the CellTiter-Glo assay kit (Promega). Normalized percent cell growth inhibition is plotted on the left side of each panel and IC50 values reported at each pH from non-linear regression analysis.
In order to evaluate pH-dependent activity, treatments are performed at atypical cell culture conditions. […] Several cell lines have been evaluated using this method and for each, cell seeding density and treatment duration is independently experimentally determined. Each experiment is normalized to sham and complete activity controls for each pH condition.
Human MDA-MB-231 breast cancer cells seeded at low density on tissue culture treated 384-well plates, allowed to adhere and grow in serum-supplemented growth medium for 24 hours, then treated under pH-controlled conditions for 6 hours, and finally washed and grown in fresh growth media for 72 hours were assessed for cell survival using the CellTiter-Glo assay system (Promega) (FIG. 6).

The conditions of data set [2]: following intravenous injection; cited from earlier work.

`COc1cccc2c1C(=O)c1c(O)c3c(c(O)c1C2=O)C[C@@](O)(C(=O)CO)C[C@@H]3O[C@H]1C[C@H](N)[C@H](O)[C@H](C)O1` [doxorubicin, reference compound]: the “fold lower IC50 value in cells treated at pH 7.4 than at pH 6.2” value in data set [1] was above 15 fold. The “t1/2 of distribution from the blood into tissues” value in data set [2] was around 5 min.
